These results are taken from patent publication EP4635949A1 (Jiangsu NHWA Pharmaceutical Co., Ltd, priority 2022, dated 2024).

By UniProt entry, the sequences of proteins in these tests, tags left out.
UniProt O43614, whole entry: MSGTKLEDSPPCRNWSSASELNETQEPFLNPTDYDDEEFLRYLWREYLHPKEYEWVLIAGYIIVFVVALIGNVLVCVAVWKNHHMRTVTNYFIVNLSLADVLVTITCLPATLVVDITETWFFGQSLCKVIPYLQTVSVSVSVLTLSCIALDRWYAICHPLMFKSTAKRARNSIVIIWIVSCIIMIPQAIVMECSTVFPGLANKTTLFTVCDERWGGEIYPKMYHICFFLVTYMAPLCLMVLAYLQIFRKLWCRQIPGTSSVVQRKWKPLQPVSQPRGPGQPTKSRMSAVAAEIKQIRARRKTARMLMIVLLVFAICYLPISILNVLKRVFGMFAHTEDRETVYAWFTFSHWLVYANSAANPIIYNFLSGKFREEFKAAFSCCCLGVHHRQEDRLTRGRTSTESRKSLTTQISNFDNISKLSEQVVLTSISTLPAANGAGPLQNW
UniProt O43613, whole entry: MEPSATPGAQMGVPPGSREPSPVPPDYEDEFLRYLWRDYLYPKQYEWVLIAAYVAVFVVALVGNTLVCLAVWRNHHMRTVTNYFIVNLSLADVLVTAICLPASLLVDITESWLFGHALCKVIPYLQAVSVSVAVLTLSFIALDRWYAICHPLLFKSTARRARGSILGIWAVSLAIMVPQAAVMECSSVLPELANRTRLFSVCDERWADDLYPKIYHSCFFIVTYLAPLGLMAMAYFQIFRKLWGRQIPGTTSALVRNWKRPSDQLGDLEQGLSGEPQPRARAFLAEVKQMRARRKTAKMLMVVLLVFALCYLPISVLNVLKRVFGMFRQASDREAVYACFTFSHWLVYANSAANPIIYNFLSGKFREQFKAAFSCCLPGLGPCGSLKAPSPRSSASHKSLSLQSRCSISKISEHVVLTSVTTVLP

Marks after values point to notes of the source that are not given here.

By IC50 is commonly meant the concentration at which inhibition is half-maximal. A high value points to lower potency.

One assay concerns SD rats. Put plainly: Autonomous activity of rats. The settings on record: rat, in vivo.
Another assay addresses T1, OX2 receptor (Homo sapiens, UniProt O43614).
T1 construct: host or cells: CHO-K1
In words: Orexin target function test (Cisbio HTRF IP-one), CHO-K1-OX2 cells, antagonism of EC80 Orexin 2 receptor agonist. It is filed as cell-based.

The next assay addresses T2, OX1 receptor (Homo sapiens, UniProt O43613).
T2 construct: host or cells: CHO-K1
Put plainly: Orexin target function test (Cisbio HTRF IP-one), CHO-K1-OX1 cells, antagonism of EC80 Orexin A. It is filed as cell-based. On the technique in general: Time-resolved FRET reads energy transfer from a long-lived donor to a nearby acceptor.

For `Cc1cc(C)nc(N2CC3CN(C(=O)c4c(F)cccc4-n4nccn4)CC3C2)n1` (centres unmarked) [Seltorexant, reference compound], the “Activity distance (mm)” value stood at 58753.65±13055.81 mm in the assay on SD rats (10 mg/kg), 54020.96±5166.53 mm in the assay with SD rats (30 mg/kg) and 31529.21±7233.98 mm with SD rats (50 mg/kg). Also, the “Inhibition rate(%)” value was 17.29% in the assay with SD rats (10 mg/kg), 23.95* % with SD rats (30 mg/kg) and 55.61 * % in the assay on SD rats (50 mg/kg). The IC50 at OX2 receptor worked out at 26 nM; on OX1 receptor it was 1100 nM.
